# scFv variants of Ab-14 (heavy chain) against a SARS-CoV-2 spike peptide

The measurements come from Engelhart et al. 2022 (doi:10.1038/s41597-022-01779-4) through the FLAb antibody collection.

Antigen: PDVDLGDISGINAS, a 14-residue peptide of the SARS-CoV-2 spike HR2 region.

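The starting antibody came from a phage panning campaign against this peptide. The library (AAYL49) carries one to three amino acid substitutions per variant, with no insertions or deletions. The assay is AlphaSeq: two haploid yeast populations carry antibody and antigen on their surface. After mating in shaken culture at 30 °C for 16 h, diploids were selected and their barcode pairs sequenced. The ratio of observed to expected reads was calibrated, replicate by replicate, on BCL2-family standards whose Kd was known from biolayer interferometry. The assay was run in three technical replicates.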

Parent: Ab-14, a human scFv built as VH, a (GGGGS)3 linker, VL. Only the CDRs of the heavy chain vary.
VH: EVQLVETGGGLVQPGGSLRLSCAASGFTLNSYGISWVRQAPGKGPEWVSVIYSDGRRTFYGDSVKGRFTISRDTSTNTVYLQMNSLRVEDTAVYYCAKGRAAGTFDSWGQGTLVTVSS
VL: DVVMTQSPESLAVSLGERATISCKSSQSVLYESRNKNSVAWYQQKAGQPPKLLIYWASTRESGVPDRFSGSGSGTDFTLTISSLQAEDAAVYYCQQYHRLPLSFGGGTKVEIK

Changes read parent residue, position, new residue, counted from the first residue of the VH shown.
Values are log10 of the apparent Kd in nM; lower means stronger binding.
Averages over replicates are reported, and they cover detected replicates only.
Where no diploid with the target was found in that replicate, the entry reads "ND": below detection, most likely a poor binder, though not proof of it.
Empty control strains, which show no peptide, gave a signal in 15% of pairings with library AAYL49; the median was 4.06 and 95% of these signals were weaker than 2.83. No background was subtracted. Also given: how often the same scFv was detected with the empty control strains, with their mean in brackets.
In this assay the parent's reference entry averaged 0.65; its copy inside this library read 4.11 (one replicate of three).

{"changes": "F27M N30Q R57L", "log10 Kd (nM) by replicate": "ND / ND / ND", "log10 Kd (nM), mean": "ND", "control signals": "3 of 9 (3.71)"}
{"changes": "T28K D54W D106F", "log10 Kd (nM) by replicate": "ND / ND / 6.10", "log10 Kd (nM), mean": "6.10", "control signals": "2 of 9 (4.11)"}
{"changes": "I34M T104M S107R", "log10 Kd (nM) by replicate": "3.85 / 3.10 / 4.53", "log10 Kd (nM), mean": "3.83", "control signals": "3 of 9 (4.92)"}
{"changes": "G61L K65R T104H", "log10 Kd (nM) by replicate": "0.30 / 0.81 / 0.72", "log10 Kd (nM), mean": "0.61", "control signals": "1 of 9 (4.08)"}
{"changes": "G55Q S63Q", "log10 Kd (nM) by replicate": "ND / ND / ND", "log10 Kd (nM), mean": "ND", "control signals": "0 of 9"}
{"changes": "L29K R56T V64C", "log10 Kd (nM) by replicate": "5.44 / ND / ND", "log10 Kd (nM), mean": "5.44", "control signals": "0 of 9"}
{"changes": "D54V Y60D F105M", "log10 Kd (nM) by replicate": "4.18 / 3.64 / ND", "log10 Kd (nM), mean": "3.91", "control signals": "1 of 9 (2.93)"}
{"changes": "Y52A K65V S107P", "log10 Kd (nM) by replicate": "ND / ND / ND", "log10 Kd (nM), mean": "ND", "control signals": "2 of 9 (3.26)"}
{"changes": "T58C K65M T104C", "log10 Kd (nM) by replicate": "5.06 / ND / ND", "log10 Kd (nM), mean": "5.06", "control signals": "2 of 9 (3.72)"}
{"changes": "Y60M G61W R100C", "log10 Kd (nM) by replicate": "ND / ND / ND", "log10 Kd (nM), mean": "ND", "control signals": "2 of 9 (3.98)"}
{"changes": "G33H I34F G103E", "log10 Kd (nM) by replicate": "ND / ND / ND", "log10 Kd (nM), mean": "ND", "control signals": "1 of 9 (3.95)"}
{"changes": "I34E D62A V64I", "log10 Kd (nM) by replicate": "ND / ND / ND", "log10 Kd (nM), mean": "ND", "control signals": "1 of 9 (3.20)"}
{"changes": "G61W D62T F105K", "log10 Kd (nM) by replicate": "ND / ND / ND", "log10 Kd (nM), mean": "ND", "control signals": "2 of 9 (4.40)"}
{"changes": "S53P S63G", "log10 Kd (nM) by replicate": "3.29 / ND / ND", "log10 Kd (nM), mean": "3.29", "control signals": "0 of 9"}
{"changes": "N30K S53G G61I", "log10 Kd (nM) by replicate": "1.60 / 1.27 / 1.68", "log10 Kd (nM), mean": "1.52", "control signals": "2 of 9 (5.70)"}
{"changes": "V50G I51K Y52E", "log10 Kd (nM) by replicate": "ND / ND / ND", "log10 Kd (nM), mean": "ND", "control signals": "1 of 9 (4.15)"}
{"changes": "T28M G33L S107F", "log10 Kd (nM) by replicate": "ND / ND / 5.03", "log10 Kd (nM), mean": "5.03", "control signals": "2 of 9 (3.73)"}
{"changes": "G26D F105E", "log10 Kd (nM) by replicate": "ND / ND / ND", "log10 Kd (nM), mean": "ND", "control signals": "0 of 9"}
{"changes": "Y32F R100I D106A", "log10 Kd (nM) by replicate": "2.76 / 2.93 / 2.43", "log10 Kd (nM), mean": "2.71", "control signals": "2 of 9 (4.03)"}

Repeated from above, the 2 best binders with a signal in all replicates:

changes	log10 Kd (nM) by replicate	log10 Kd (nM), mean	control signals
G61L K65R T104H	0.30 / 0.81 / 0.72	0.61	1 of 9 (4.08)
N30K S53G G61I	1.60 / 1.27 / 1.68	1.52	2 of 9 (5.70)